For one compound, Ki results are on record in US6822100B2 (Bristol-Myers Squibb Company, priority 2001, dated 2004).

Chains of the proteins cited; added tags and fusions are not shown. Lines headed by an entry give the natural chain unless they say otherwise; changes in a name come on top.
UniProt P14416, whole entry: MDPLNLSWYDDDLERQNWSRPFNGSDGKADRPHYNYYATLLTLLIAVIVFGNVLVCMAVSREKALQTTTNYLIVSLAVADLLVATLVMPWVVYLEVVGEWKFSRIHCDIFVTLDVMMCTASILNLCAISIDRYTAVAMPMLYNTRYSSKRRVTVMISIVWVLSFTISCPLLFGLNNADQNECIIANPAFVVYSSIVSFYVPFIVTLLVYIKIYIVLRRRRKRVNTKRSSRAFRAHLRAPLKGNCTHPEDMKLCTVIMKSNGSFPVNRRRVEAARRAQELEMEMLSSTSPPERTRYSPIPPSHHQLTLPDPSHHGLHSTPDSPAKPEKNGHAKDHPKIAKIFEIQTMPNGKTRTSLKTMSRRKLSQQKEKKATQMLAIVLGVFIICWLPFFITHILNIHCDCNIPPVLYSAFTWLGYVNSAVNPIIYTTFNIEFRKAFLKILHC

The target in the assay is recombinant human dopamine D2L receptors (Homo sapiens, UniProt P14416). The experiment in a line: Dopamine Binding Assay. The conditions noted are these: read-out: D2L Ki; HEK-D2L cell membranes, 150 pM [3H]-spiperone, Cheng and Prusoff.

Bounds are passed on as bounds.

Turning to `CC(C)OC(=O)NCCCN(C)CC1CC1c1c[nH]c2ccc(C#N)cc12` (stereo not shown), the Ki is above 1 µM.

As usually defined, the Ki is the dissociation constant of the complex between target and ligand, obtained from inhibition or displacement.
